# Antibody variant affinities, Ab-14 light chain, assay 1

Target peptide (SARS-CoV-2 spike, HR2 region): PDVDLGDISGINAS

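Variants in AAYL50 differ from the parent at up to three CDR positions; double and triple changes were sampled at random. The assay is AlphaSeq: two haploid yeast populations carry antibody and antigen on their surface. Binding brings cells together so that they mate, and sequencing counts the barcode pairs among the diploids. Each replicate has its own calibration line, from reference interactions of the BCL2 family. There are three technical replicates.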

The variants keep the heavy chain, the linker and the frameworks of Ab-14 (scFv order VH, three GGGGS repeats, VL).
VH: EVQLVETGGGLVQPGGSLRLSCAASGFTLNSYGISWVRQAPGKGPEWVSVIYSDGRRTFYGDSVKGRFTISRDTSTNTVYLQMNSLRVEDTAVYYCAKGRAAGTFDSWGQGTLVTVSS
VL: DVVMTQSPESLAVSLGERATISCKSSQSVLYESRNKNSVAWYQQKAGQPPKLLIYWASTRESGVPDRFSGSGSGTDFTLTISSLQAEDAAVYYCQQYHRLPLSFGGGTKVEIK

Changes read parent residue, position, new residue, counted from the first residue of the VL shown. The Kd shown is the geometric mean over detected replicates; a lower Kd is a better binder. An entry "no signal" has no value in the source: the pair was not observed among the diploids in any replicate. This suggests poor binding but is not conclusive. The list is sorted by this average, lowest first, undetected variants last. Parent in this assay: reference entry 4.4 nM, copy in this library 48 nM. Nonspecific signal, from three strains lacking the peptide, appeared in 18% of pairings of library AAYL50, centred on 15 µM (5% of these signals below 970 nM); values are not corrected for it. For each scFv, signals with the empty controls are counted beside the result.

Kd	seen in	control signals	changes
2.6 nM	3/3	5/9	K36L/Y97V
3.4 nM	3/3	2/9	Y31M/R34V/L102T
3.5 nM	3/3	1/9	L30G/W56A/R60C
6.6 nM	3/3	5/9	S25Y/S28G/H98L
7.0 nM	3/3	0/9	S25C/E32N/S33N
7.3 nM	3/3	0/9	S25W/Y97F
8.4 nM	3/3	1/9	H98W/L102Q
10 nM	3/3	1/9	V29T/S33Q/L100G
15 nM	3/3	4/9	E61Q/Q96C
16 nM	3/3	0/9	Q96F/S103V
27 nM	3/3	0/9	N35V/Y97T/P101M
35 nM	3/3	5/9	R34D/H98P
35 nM	3/3	1/9	N35F/N37Y/R99Q
36 nM	3/3	3/9	Y31G/E32K/S33F
72 nM	3/3	0/9	S25H/V29W/E61H
78 nM	3/3	0/9	V29I/S33A/E61P
79 nM	3/3	2/9	Q27Y/N35F/H98C
82 nM	3/3	1/9	L30P/N35H/P101K
110 nM	3/3	0/9	L30E/E32V/L100H
110 nM	3/3	6/9	S26R/Y31I/E61I
200 nM	3/3	0/9	Q27M/S58R/E61W
230 nM	3/3	0/9	N35I/R60L/L102W
690 nM	3/3	1/9	V39T/H98C/L102I
740 nM	1/3	0/9	Q27W/V39N/S58E
810 nM	3/3	1/9	S25N/S26W/Q96V
820 nM	3/3	1/9	S62R/L102T
840 nM	3/3	8/9	V29G/Q96L/Y97V
890 nM	3/3	1/9	S33R/S62N/H98N
1.2 µM	3/3	1/9	Q27V/S38Q/E61N
2.3 µM	3/3	5/9	Q27M/L30D/N37L
2.4 µM	3/3	5/9	K24Y/R60H/H98C
2.8 µM	2/3	1/9	K24A/E32P/S38R
3.8 µM	3/3	1/9	N35P/S38K/T59V
4.8 µM	1/3	0/9	S33F/Q96N/Y97S
5.4 µM	2/3	6/9	V29D/V39A/L102K
6.1 µM	3/3	6/9	T59Y/R60P
13 µM	1/3	0/9	R60P/Y97E/S103Q
17 µM	2/3	4/9	A40C/R99M/L102R
17 µM	2/3	6/9	S33K/A40L/A57V
17 µM	1/3	3/9	S25K/Y97R/L102W
18 µM	2/3	3/9	S25H/R60I/S103G
38 µM	1/3	0/9	W56H/L102F
39 µM	1/3	6/9	W56A/Q95R/L100T
41 µM	1/3	0/9	S28Y/R34T/T59A
46 µM	1/3	2/9	S28K/S58A/H98Y
780 µM	1/3	3/9	R34I/N35W/A40W
no signal	0/3	0/9	S38K/T59E/R60A
no signal	0/3	3/9	K24I/R99D/L100I
no signal	0/3	2/9	V29G/R34Q/L100K
no signal	0/3	0/9	Q27I/A40T/H98C
no signal	0/3	2/9	L30T/S58I/E61D
no signal	0/3	0/9	R34Q/A40S/P101S
no signal	0/3	3/9	S38Q/W56Y/Q95D
no signal	0/3	2/9	V29H/N35H/S38M
no signal	0/3	0/9	S38Y/V39Y/A40M
no signal	0/3	2/9	S28Y/S58T/Y97Q
no signal	0/3	0/9	E61V/Q96E/Y97L
no signal	0/3	0/9	A57P/T59E/R60T
no signal	0/3	1/9	Q27N/N37T/A57N
no signal	0/3	3/9	S33L/V39E/T59V
no signal	0/3	2/9	K24P/S28L
no signal	0/3	1/9	K24L/A40N/R99A

Excerpt, the first 5 entries:

changes	Kd	seen in	control signals
K36L/Y97V	2.6 nM	3/3	5/9
Y31M/R34V/L102T	3.4 nM	3/3	2/9
L30G/W56A/R60C	3.5 nM	3/3	1/9
S25Y/S28G/H98L	6.6 nM	3/3	5/9
S25C/E32N/S33N	7.0 nM	3/3	0/9

Values reported by Engelhart et al. 2022, doi:10.1038/s41597-022-01779-4 (FLAb copy).